scFv variants of Ab-14 (heavy chain) against a SARS-CoV-2 spike peptide

Values reported by Engelhart et al. 2022, doi:10.1038/s41597-022-01779-4 (FLAb copy).

All variants were tested on one target, the spike HR2 peptide PDVDLGDISGINAS (SARS-CoV-2).

The variants keep the light chain, the linker and the frameworks of Ab-14 (scFv order VH, the linker GGGGSGGGGSGGGGS, VL).
VH: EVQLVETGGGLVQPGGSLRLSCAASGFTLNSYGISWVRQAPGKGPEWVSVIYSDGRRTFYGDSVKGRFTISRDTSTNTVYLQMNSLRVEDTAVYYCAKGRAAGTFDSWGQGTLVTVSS
VL: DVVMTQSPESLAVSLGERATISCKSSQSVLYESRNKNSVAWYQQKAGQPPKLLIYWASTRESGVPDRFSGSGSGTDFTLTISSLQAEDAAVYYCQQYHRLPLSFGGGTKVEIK

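The parent was found by panning a naive human phage display library on the peptide. Variants in AAYL49 differ from the parent at up to three CDR positions; double and triple changes were sampled at random. The scFvs were displayed on barcoded MATa yeast, the peptide on MATalpha yeast. Mating (16 h, 30 °C) was followed by selection of diploids and sequencing of their barcodes. Read counts were normalised to the haploid input and turned into Kd by a linear fit to BCL2-family pairs of known affinity, for each replicate. There are three technical replicates.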

The parent's heavy chain CDRs are GFTLNSYGIS, VIYSDGRRTFYGDSVK, GRAAGTFDS; each variant's own CDRs replace them letter for letter. Affinities are written as log10 Kd with Kd in nM; a lower number is a better binder. Where no diploid with the target was found in that replicate, the entry reads "nd": below detection, most likely a poor binder, though not proof of it. Nonspecific signal, from three strains lacking the peptide, appeared in 15% of pairings of library AAYL49, centred on 4.06 (5% of these signals below 2.83); values are not corrected for it. The control count says in how many pairings with the empty strains this scFv gave a signal.

With KFTLNSYGIS | VIYSDGQRTFYGCSVK | GRAAGTFDS the result was nd, nd, nd (controls 0 of 9).
With GFTLNKYGVS | VIYSDGRRTFYGDSVK | ERAAGTFDS the result was nd, nd, nd (controls 0 of 9).
With GFTLPSYGIS | VIYSDGRRTFYGDSVK | GRAAGHFMS the result was 2.30, 2.79, 2.35 (controls 4 of 9).
With GFTLNSYGIS | VIFSDGRRTFYGDSVK | GRAALTGDS the result was nd, nd, nd (controls 1 of 9).
With GFTLNSYGRS | VIYSDGRRTFYGDSVK | YRIAGTFDS the result was nd, nd, nd (controls 0 of 9).
With GFTLNSLGIS | VIWVDGRRTFYGDSVK | GRAAGTFDS the result was nd, 4.24, 4.65 (controls 6 of 9).
With GFTLNSYGIS | VIWSDGRRTFYGDSVK | GRAATTFDS the result was 5.92, nd, nd (controls 6 of 9).
With GYTLNSYGIS | VIYSDGRRTFYGDSVK | GRAGYTFDS the result was 3.13, 2.48, 3.06 (controls 5 of 9).
With GFTLDSYGIS | VIYSDGRRTLYGNSVK | GRAAGTFDS the result was 1.86, 2.06, 2.06 (controls 4 of 9).
With GFTLESYGIS | VIYSDGRRGFYGDSVK | GRAAGTFDI the result was 3.57, nd, nd (controls 1 of 9).
With GFTLNSYGIS | VDCSDGRRTFYMDSVK | GRAAGTFDS the result was nd, nd, 5.42 (controls 3 of 9).
With GFTLNSYGIS | VIYSDNRRAFYGDSVK | GRAAGVFDS the result was nd, nd, nd (controls 1 of 9).
With GFTLNSYGID | VQYSDGRRTFYGCSVK | GRAAGTFDS the result was nd, 4.66, nd (controls 1 of 9).
With GFTLNSYGIS | VIYSDGRRTFYGDSVR | ARMAGTFDS the result was nd, nd, nd (controls 0 of 9).
With GFTFNSYGIS | VMYSDGRRTFYGDSVK | GRNAGTFDS the result was 2.71, 3.25, 2.80 (controls 2 of 9).
With GFTLNHYGIS | VIYSDGRRTFYGDAVK | GRAAGEFDS the result was 1.54, 1.70, 1.75 (controls 2 of 9).
With GFFLNSYGIS | IWYSDGRRTFYGDSVK | GRAAGTFDS the result was nd, nd, nd (controls 2 of 9).
With GFTLNSYGIS | VIWSDGRRTFYGDDVK | DRAAGTFDS the result was nd, nd, 4.00 (controls 5 of 9).
With GFTLNSYGTS | VIYSDGRRTFYHDSVD | GRAAGTFDS the result was 3.91, 3.12, nd (controls 0 of 9).
With GFTLNSYGIS | VIYSDWRRTFYGDSSK | GRAAGTFDS the result was nd, nd, nd (controls 0 of 9).
With AFTLNSFGIS | VIWSDGRRTFYGDSVK | GRAAGTFDS the result was nd, 4.64, nd (controls 1 of 9).
With GFTLNSYGIS | VIYSDGRRTFYFDSVK | GRAAGTFDS the result was nd, nd, nd (controls 2 of 9).
With GFTLQSYGIS | VIYSFGRRTFYGDSGK | GRAAGTFDS the result was 4.97, nd, nd (controls 1 of 9).
With GFTLNSYGIS | VEYSDGHRTFYGDSVK | VRAAGTFDS the result was nd, nd, nd (controls 2 of 9).
With GFTLNSYGIS | VIYSDGRRTFYGDSVF | GRAAGTFLS the result was nd, nd, nd (controls 1 of 9).
With GFSLNSYGIS | VIYSDPRRTFYGDSVY | GRAAGTFDS the result was nd, nd, nd (controls 0 of 9).
With GFTLNSYGIS | VIRSDGRRTFYQDSVE | GRAAGTFDS the result was nd, nd, 4.22 (controls 5 of 9).
With GFTLNSYNIS | VIYSDGRRTFYGDSVK | GRAHGWFDS the result was nd, nd, nd (controls 2 of 9).
With GFTLKNYGIS | IIYSDGRRTFYGDSVK | GRAAGTFDS the result was 2.32, 2.32, 2.80 (controls 1 of 9).
With GFTLNSYGIM | VIYSDGVVTFYGDSVK | GRAAGTFDS the result was nd, nd, nd (controls 0 of 9).
With GFTLNSYGIS | VIYSDGRRTFYRDSWK | GREAGTFDS the result was nd, nd, nd (controls 2 of 9).
With GFTLASYGIS | VIYSDGRRTFYGDSVG | GRAAGIFDS the result was nd, nd, nd (controls 0 of 9).
With GFTLNSYGIS | VIYSDGRRTFYGDSVK | GGAAGTFDS the result was 2.03, 1.54, 1.77 (controls 1 of 9).
With GFTLNSYGIS | VIYSDGRRTFYGDNCK | GRAAGTKDS the result was 3.23, 3.21, 3.14 (controls 2 of 9).
With GFTLNSYGIS | VIVSDGRRTDYGDSVK | GRAAGTFDP the result was 4.39, nd, nd (controls 1 of 9).
With GFTLNSYGIP | VIYSDGRRTFYGASVK | GRAAGTFDF the result was 5.95, 3.86, 5.08 (controls 8 of 9).
With GFTLNSYGIS | VIYSDGRRTFYGESVK | GRFAGTYDS the result was nd, 4.70, nd (controls 2 of 9).
With GFTLKSYGIS | VIYSDGRMTFYGDSVK | GRAAGTEDS the result was nd, nd, 3.27 (controls 0 of 9).
With GFTLNSYGIS | VIYSDGRRTFYGGSVK | GRAAGTFDS the result was 3.88, 3.47, 3.25 (controls 0 of 9).
With GFTLYSYGIS | VIYSDGRRTFYDASVK | GRAAGTFDS the result was 2.02, 1.46, 1.69 (controls 4 of 9).
With GFTLDFYGIS | VIYSDGRRTFYGDSVR | GRAAGTFDS the result was 1.33, 1.33, 1.33 (controls 3 of 9).
With VFTLNSYGIS | VIYSDGRRTFYGASVK | GRAAGTFGS the result was 2.29, nd, nd (controls 0 of 9).
With GFTLNSYGIS | VIYSDACYTFYGDSVK | GRAAGTFDS the result was nd, nd, nd (controls 2 of 9).
With GFTLNSYGIS | VIYPDGRRTGYGDSVK | GRAAGTFDS the result was 2.93, 2.40, 2.55 (controls 1 of 9).
With GFTLMDYGIS | VIYSDGRRTFYGDSVK | GRAAGTFDA the result was 0.77, 0.84, 0.72 (controls 4 of 9).
With GFTLKSYGIS | VIYSDGRRTLYGDSVK | GRAAGTVDS the result was 6.31, 4.52, 6.19 (controls 4 of 9).
With GFTLNSYGIS | VIYSDGRRSFYHDRVK | GRAAGTFDS the result was 2.15, 2.26, 2.49 (controls 5 of 9).
With GFTLNSYGSS | VIYSDGTRTFYYDSVK | GRAAGTFDS the result was nd, nd, nd (controls 0 of 9).
With GNTLNSYGIS | VIYSDGRRTFYTDSVK | GRVAGTFDS the result was -0.01, 0.25, -0.02 (controls 1 of 9).
With GFTHNSYGIS | VIYEDGRRTFYGDSVK | GRAAGTFDS the result was 4.56, 4.18, 4.43 (controls 2 of 9).
With GHTLNSYGIS | VIYSNGRRTWYGDSVK | GRAAGTFDS the result was nd, nd, nd (controls 0 of 9).
With GFTLNSYGIS | VIKSDGRRTFYGDSVK | GRAALTFDS the result was nd, nd, nd (controls 1 of 9).

Excerpt, the first 9 entries:

CDR-H1	CDR-H2	CDR-H3	log10 Kd (nM) by replicate	control signals
KFTLNSYGIS	VIYSDGQRTFYGCSVK	GRAAGTFDS	nd, nd, nd	0/9
GFTLNKYGVS	VIYSDGRRTFYGDSVK	ERAAGTFDS	nd, nd, nd	0/9
GFTLPSYGIS	VIYSDGRRTFYGDSVK	GRAAGHFMS	2.30, 2.79, 2.35	4/9
GFTLNSYGIS	VIFSDGRRTFYGDSVK	GRAALTGDS	nd, nd, nd	1/9
GFTLNSYGRS	VIYSDGRRTFYGDSVK	YRIAGTFDS	nd, nd, nd	0/9
GFTLNSLGIS	VIWVDGRRTFYGDSVK	GRAAGTFDS	nd, 4.24, 4.65	6/9
GFTLNSYGIS	VIWSDGRRTFYGDSVK	GRAATTFDS	5.92, nd, nd	6/9
GYTLNSYGIS	VIYSDGRRTFYGDSVK	GRAGYTFDS	3.13, 2.48, 3.06	5/9
GFTLDSYGIS	VIYSDGRRTLYGNSVK	GRAAGTFDS	1.86, 2.06, 2.06	4/9